These results are taken from PubChem BioAssay AID1892 (NMMLSC, 2009).

Molecules are shown by their SMILES. The list shows a part of the results, in another mix than the full data. Active and inactive are the calls of the source. No stated cut-off is given here; in the data, active means binding response below about 16% or above about 210%; inactive means in between.

For this test, the target named is Mitogen-activated protein kinase kinase kinase 2 (Homo sapiens) (UniProt Q9Y2U5). The experiment in a line: wildtype MEKK2 PB1-MEK5 interaction enhancers or blockers – biochemical, single concentration, multiplex bead flow cytometry, confirmation (AID 1892). Particulars: Alexa488-MEK5 binding to MEKK2 WT, at 10 µM, actives lie on both sides. (In general: In flow cytometry, cells or beads pass a laser one at a time.)
For `CCN(CC)CCCOC(=O)C(O)(c1ccccc1)C1CCCCC1` (stereo not drawn), the binding response (% of control) was inactive: 105%.
Turning to `CP(=O)(Nc1ccc(Cl)cc1)Oc1ccc(F)cc1` (stereo not drawn), the binding response (% of control) was inactive: 103%.
In the case of `COc1ccccc1OP(C)(=O)Nc1c(C)cccc1C` (stereo not drawn) it was inactive: 105%.
